Laboratory results published in patent US20190194324A1.

What was measured:
[1] = target: APLP2; assay: cell surface binding (SH-SY5Y)
[2] = target: APP; assay: cell surface binding (SH-SY5Y)
[3] = target: NRXN1α; assay: cell surface binding (SH-SY5Y)
[4] = target: NRXN1β; assay: cell surface binding (SH-SY5Y)
[5] = target: NRXN2β; assay: cell surface binding (SH-SY5Y)
[6] = target: NRXN3β; assay: cell surface binding (SH-SY5Y)
[7] = target: APLP1 expressed in SH-SY5Y cells (FIG. 1B) (UniProt P51693); assay: cell surface binding on transfected SH-SY5Y cells, PFF against α-syn-biotin monomer
[8] = target: LAG3 overexpressed in transfected cells (SH-SY5Y; HEK293FT); assay: as above
[9] = target: Neurexin1β expressed in SH-SY5Y cells (FIG. 1B); assay: as above
[10] = target: APLP1 expressed in SH-SY5Y cells (FIG. 1B) (UniProt P51693); assay: cell surface binding (SH-SY5Y)
[11] = target: CD4 expressed in SH-SY5Y cells; assay: cell surface binding (SH-SY5Y)
[12] = target: WT; assay: cell surface binding (cortical neurons); WT cortical neurons
[13] = target: LAG3-/-; assay: cell surface binding (cortical neurons); LAG3-/- cortical neurons
[14] = target: human recombinant LAG3 (human) (UniProt P18627); assay: ELISA, human LAG3 captured on an anti-LAG3 coated plate, HRP-streptavidin detection (legends: human α-syn PFF)

| Substance | Kd [1] | Kd [2] | Kd [3] | Kd [4] | Kd [5] | Kd [6] | Kd [10] | Kd [11] | further results |
| --- | --- | --- | --- | --- | --- | --- | --- | --- | --- |
| α-SYN PFF (from UniProt O55042 1-140) | > 3 µM | > 3 µM | 0.933 µM | 0.26 µM | 0.63 µM | 0.34 µM | – | – | – |
| α-syn-biotin PFF (biotin-labelled α-synuclein pre-formed fibrils) (from UniProt O55042 1-140) | – | – | – | – | – | – | 0.401 µM | > 3 µM | selectivity (Kd monomer divided by Kd PFF) [7]: 7; selectivity (Kd monomer divided by Kd PFF) [8]: 38; selectivity (Kd monomer divided by Kd PFF) [9]: 11 |
| α-SYN-BIOTIN (from UniProt O55042 1-140) | – | – | – | – | – | – | – | – | Kd [12]: 0.374 µM; Kd [13]: 0.449 µM |
| α-SYN (from UniProt O55042 1-140) | > 3 µM | > 3 µM | > 3 µM | > 3 µM | > 3 µM | > 3 µM | – | – | – |
| Human α-syn PFF (from UniProt P37840 1-140) (other; other documents disagree on this pair) | – | – | – | – | – | – | – | – | Kd [14]: 0.0027 µM |
| α-syn-biotin monomer (from UniProt O55042 1-140) | – | – | – | – | – | – | > 3 µM | > 3 µM | – |
